# Target: T1, Aurora kinase A (Homo sapiens, UniProt O14965)
# T1 sequence (O14965 whole entry): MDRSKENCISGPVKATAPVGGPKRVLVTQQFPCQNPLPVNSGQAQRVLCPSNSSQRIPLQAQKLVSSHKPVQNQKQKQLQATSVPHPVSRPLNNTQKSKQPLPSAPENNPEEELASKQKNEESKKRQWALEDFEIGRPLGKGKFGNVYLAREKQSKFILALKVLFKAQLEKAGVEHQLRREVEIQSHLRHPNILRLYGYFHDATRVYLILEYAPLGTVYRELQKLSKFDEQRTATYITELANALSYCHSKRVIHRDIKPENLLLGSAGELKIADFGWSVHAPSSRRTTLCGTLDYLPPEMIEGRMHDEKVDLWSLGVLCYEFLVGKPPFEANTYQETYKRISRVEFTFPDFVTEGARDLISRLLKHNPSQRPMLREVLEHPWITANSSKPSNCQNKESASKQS
compound,measurement,value
FC(F)(F)c1cccc(Nc2ccnc(Nc3ccccc3)n2)c1,IC50,14.1 µM
